Measured values reported in PubChem BioAssay AID652025 (National Center for Advancing Translational Sciences (NCATS), 2013).
Only a part is listed here, and it is no random draw. The source made the active and inactive calls. Cut-off read from the data, not from the text of the source: active = activation above about 50%; inconclusive = mostly about 30% to 49%; inactive = weaker than that.

assay: qHTS of IL-2 Activators; conditions: IL-2 activation reporter assay, cell-based qHTS; hits give high values; in transgenic mouse T cells; stimulated with anti-CD3/CD4/CD28 beads; note: 0% is about no effect
Text: The adaptive immune response against any infectious agent begins with the activation of an antigen specific T cell. This relatively rare and inert ("naive") T cell undergoes a massive proliferative expansion and differentiation process to generate sufficient number of potent pathogen-specific effector T cells. The effector T cells fight the infection by making cytokines and helping other cells to become fully armed as well. If any naive T cell has antigen receptors (TCRs) that can be activated by self peptides, then a variety of regulatory mechanisms kick in to prevent this cell from performing to its full potential. These processes collectively constitute the phenomenon of immunological tolerance and their failure leads to autoimmunity. One arm of tolerance involves generation of biochemical negative feedback downstream of the TCR (tuning). This is especially relevant to self antigens present in the body over long periods of time (chronic), which form the bulk of our proteome. The negative feedback serves to tune the TCR signaling, such that the ambient antigenic stimulation is nullified intracellularly. Unfortunately, this critical machinery serves as a target for chronic viral, bacterial and parasitic infections (as well as tumors), which can evade a robust immune response, simply by allowing T cells to tune down their signaling to pathogen or malignancy derived antigens. As such, disrupting the tuning in such cases would allow the tolerant T cell to function again and deliver a robust effector response.
If a therapeutic can restore responsiveness to the tuned down T cell, even for a short time, they could combat the pathogen without any additional immunization. To that end, we have developed a sensitive HTS T cell based assay based on IL-2. This assay will be screened against the Molecular Libraries Small Molecule Repository (MLSMR) to find small molecules that could elicit this response.
NIH Chemical Genomics Center [NCGC]
NIH Molecular Libraries Probe Centers Network [MLPCN]
Assay Submitter (PI): Ron Schwartz, NIAID
4 microL (750 cells/well) of unstimulated transgenic mouse T cells (columns 1-3,5-48) are dispensed into Aurora LoBase, black clear-bottom 1536-well assay plates; column 4 receives an identical concentration of transgenic memory T cells as a non-tolerant control. Compounds are then transferred via Kalypsys pin tool equipped with 1536-pin array (10 nL slotted pins, V&P Scientific, San Diego, CA). Following addition of compound and a 60 minute incubation, 1 microL of bead stimulation solution ((0.04 micron Fluospheres (Life technologies, CA) coated with 10ug/ml each anti-CD3 and anti-CD4 (clones 2C11 and GK1.5, BD Biosciences, CA) and mixed with 1ug/ml anti-CD28 (clone PV-1, BD biosciences, CA)). columns 2-48) is added to stimulate the IL-2 response pathway; media is instead added to column 1 as an unstimulated control, while PMA/ionomycin (Sigma Aldrich, MO) is added to column 3 as a control for IL-2 tolerance bypass. The plates are then incubated at 37 degrees C for 18 hours. EGFP and DsRed signal are then detected using an Acumen eX3 Explorer fluorescent plate cytometer. All cells are dispensed in cell media containing EHAA (Quality Biologicals, MD), RPMI (Quality Biologicals, MD), Glutamine (Life Technologies, CA), Penicillin/Streptomycin (Quality Biologicals, MD), 2-ME (Sigma Aldrich, MO) and 10% FBS (Gemini Bioproducts, CA) .

Row | Compound | activation
1 | Cc1ccc(NCCc2c([N+](=O)[O-])cc([N+](=O)[O-])cc2[N+](=O)[O-])cc1 | inactive: 0.118%
2 | Nc1cccc2c([As](=O)(O)O)cccc12 | inactive: 3.45%
3 | CCCOP(=S)(Nc1nc(N)cc(=O)[nH]1)OCCC | inactive: 0.0104%
4 | CCOP(=O)(Nc1cccc2ccccc12)OCC | inactive: -3.41%
5 | COc1cc(C2NCCC3(OCCO3)C2(C)C)cc(OC)c1OC (centres undefined) | inactive: -4.95%
6 | O=C(OC1CN2CCC1CC2)c1ccc(Cl)cc1 (centres undefined) | inactive: -0.799%
7 | CS(=O)(=O)c1ccc(Cl)c(NC(=O)COC(=O)C(O)(c2ccccc2)c2ccccc2)c1 | inactive: 0.177%
8 | COc1cc(C(=O)NCC2(N3CCOCC3)CCCCC2)cc(Cl)c1OC(C)C | inactive: -0.178%
9 | O=[As](O)(O)c1cccnc1 | inactive: -0.417%
10 | O=[As](O)(c1cccc(O)c1)c1cccc(O)c1 | inactive: -0.0395%
11 | Cc1cccc(OCC(=O)OC2CN3CCC2CC3)c1 (centres undefined) | inactive: 1.59%
12 | NC(=O)Nc1ccc([As](=O)(O)O)cc1 | inactive: 0.42%
13 | CN(C(=O)Cc1ccccc1)[C@@H]1CC[C@]2(CCCO2)C[C@H]1N1CCCC1 | inactive: -0.329%
14 | CCOP1(=S)c2c(C)nn(CCC#N)c2N=C(c2ccc(F)cc2)N1C (centres undefined) | inactive: -1.74%
15 | N#CCCN(C(=O)COC(=O)C(O)(c1ccccc1)c1ccccc1)c1ccc(F)cc1 | inactive: -4.84%
16 | CN(C(=O)Cc1ccc(Cl)c(Cl)c1)[C@H]1CC[C@@]2(CCCO2)C[C@@H]1N1CCCC1 | inactive: 0.0586%
17 | CN(C)C(=O)c1cc([N+](=O)[O-])cc2c1-c1c(cc([N+](=O)[O-])cc1[N+](=O)[O-])C2=O | inactive: -0.483%
18 | O=[N+]([O-])c1ccc2c(c1)nnn2O | inactive: -2.17%
19 | O=P(Nc1nccs1)(c1ccccc1)c1nc2ccccc2s1 (centres undefined) | inactive: -0.666%
20 | O=P(Nc1nccs1)(Oc1ccccc1)Oc1ccccc1 | inactive: 0.635%
21 | CCOP1(=S)c2c(C)nn(CCC#N)c2N=C(c2ccccc2F)N1C (centres undefined) | inactive: -2.39%
22 | CS(=O)(=O)c1cc([N+](=O)[O-])c2no[n+]([O-])c2c1 | inactive: -0.0549%
23 | O=C(O)COc1ccc([As](=O)(O)O)cc1[N+](=O)[O-] | inactive: -0.34%
24 | Nc1ccccc1[As](=O)(O)c1ccccc1 | inactive: -1.6%
25 | Cc1ccc(S(=O)(=O)N(CCCN)CCCc2c(C)nc(N)[nH]c2=O)cc1 | inactive: 1.55%

Row | Compound | activation
26 | O=P1(Nc2ncccn2)COc2ccccc2OC1 | inactive: 0.314%
27 | Nc1cccc([As](=O)(O)c2ccccc2)c1 | inactive: 1.06%
28 | NS(=O)(=O)c1cccc(NC(=O)COC(=O)C(O)(c2ccccc2)c2ccccc2)c1 | inactive: -0.185%
29 | O=P1(Nc2ccc(Br)cn2)COc2ccccc2OC1 | inactive: 2.04%
30 | Cc1ccc(OCC(=O)OC2CN3CCC2CC3)cc1 (centres undefined) | inactive: -1.67%
31 | O=[As](O)(c1cccs1)c1cccs1 | inactive: 0.502%
32 | Cc1ccc(C(=O)OC2CN3CCC2CC3)cc1 (centres undefined) | inactive: -3.14%
33 | CC1CCC(C(C)C)C(OP(=O)(Nc2ccccn2)c2ccccc2)C1 (centres undefined) | inactive: -0.608%
34 | Cc1nn(-c2ccccc2)c2c1P(=O)(N1CCOCC1)N(C)C(c1ccccc1)=N2 (centres undefined) | inactive: 0.789%
35 | CN(C)C1(CNC(=O)c2ccc(S(C)(=O)=O)cc2)CCCCC1 | inactive: 0.686%
36 | CCCC1OP(=O)(Nc2ccccc2)OCC1CC (centres undefined) | inactive: 0.485%
37 | O=C(/C=C/c1ccccc1)OC1CN2CCC1CC2 (centres undefined) | inactive: -5.6%
38 | COc1ccccc1CNC(=O)COC(=O)C(O)(c1ccccc1)c1ccccc1 | inactive: 1.92%
39 | CN(C(=O)Cc1ccc(Cl)c(Cl)c1)[C@@H]1CCCC[C@H]1N1CCCC1 | inactive: 0.969%
40 | CC(C)/C=N\N=C(\N)N[N+](=O)[O-] | inactive: -1.14%
41 | CC1(CBr)Cn2c(nc3ccccc3c2=O)S1 (centres undefined) | inactive: -0.0115%
42 | CCOP(=O)(NC(=NC(C)c1ccccc1)NC(C)c1ccccc1)OCC (centres undefined) | inactive: -1.22%
43 | CCC1=CC2Cc3nc4ccc(Cl)cc4c(N)c3C(C1)C2 (centres undefined) | inactive: -3.45%
44 | O=P1(Nc2ccccn2)COc2ccccc2OC1 | inactive: -1.91%
45 | CN(CCCl)Cc1cc(Cl)c(NC2=NCCN2)c(Cl)c1 | inactive: -0.247%
46 | CCOP(=O)(Nc1ccc(C)cn1)OCC | inactive: -2.19%
47 | CC(C)(C)C(=O)NC(Sc1ncccn1)C(Cl)(Cl)Cl (centres undefined) | inactive: -0.151%
48 | Clc1n[nH]nc1-c1nn[nH][15n]1 | inactive: -0.169%
49 | O=P1(N(CCCl)CCCl)NCCC(C(F)(F)F)O1 (centres undefined) | inactive: -0.23%
50 | CSc1ccc(Nc2c([N+](=O)[O-])cc([N+](=O)[O-])cc2[N+](=O)[O-])cc1 | inactive: -2.45%

Row | Compound | activation
51 | O=C(OC1CN2CCC1CC2)c1cccc([N+](=O)[O-])c1 (centres undefined) | inactive: -2.47%
52 | CCOC(=O)c1ccc(NC(=O)C(C)(CCl)SC)cc1 (centres undefined) | inactive: -0.816%
53 | CCC(C)N(CC(C)C)C(=S)SC(NC(C)=O)C(Cl)(Cl)Cl (centres undefined) | inactive: -0.358%
54 | COC(=O)C1(C)COP(=O)(N2CCCC2)OC1 (centres undefined) | inactive: -0.281%
55 | COP1(=S)c2c(C)nn(CCC#N)c2N=C(c2ccc(F)cc2)N1C (centres undefined) | inactive: -2.53%
56 | O=C(O)C(=O)c1ccc(N(CCCl)CCCl)cc1 | inactive: -2.3%
57 | O=C(Nc1ccncc1[N+](=O)[O-])c1ccc([N+](=O)[O-])cc1[N+](=O)[O-] | inactive: 0.308%
58 | O=C(COc1ccccc1)OC1CN2CCC1CC2 (centres undefined) | inactive: -1.89%
59 | CCOC(=O)Nc1cccc([As](=O)(O)O)c1 | inactive: 0.166%
60 | Cc1cc(SC(NC=O)C(Cl)(Cl)Cl)ncn1 (centres undefined) | inactive: 0.953%
61 | O=P(Nc1ccccn1)(c1cccc2ccccc12)c1cccc2ccccc12 | inactive: 0.299%
62 | O=[N+]([O-])c1ccc(Nc2ccc(Oc3ccc([N+](=O)[O-])cc3[N+](=O)[O-])cc2)c([N+](=O)[O-])c1 | inactive: -0.442%
63 | O=C(O)C(O)c1ccc(N(CCCl)CCCl)cc1 (centres undefined) | inactive: -2.43%
64 | CCOC(=O)Nc1ccc([As](=O)(O)O)c(O)c1 | inactive: 0.213%
65 | CC1CCNP(=O)(N(CCCl)CCCl)O1 (centres undefined) | inactive: 1.31%
66 | COP(=O)(OC)N1CC1c1ccccc1 (centres undefined) | inactive: -1.74%
67 | Cc1cc(SC(NC(=O)c2ccccc2)C(Cl)(Cl)Cl)nc(C(C)C)n1 (centres undefined) | inactive: -0.409%
68 | CCCCOc1ccc(C(=O)NCC2(N3CCCCC3)CCCCC2)cc1OC | inactive: -0.787%
69 | ClCCSc1nnc(-c2cccnc2)o1 | inactive: -0.9%
70 | CC(C)c1ccc(OP(=O)(Nc2ccccn2)Oc2ccccc2F)cc1 (centres undefined) | inactive: 0.54%
71 | COC(=O)C1(C)COP(=O)(N2CCCCCC2)OC1 (centres undefined) | inactive: -4.04%
72 | O=[N+]([O-])c1cc([N+](=O)[O-])c(-c2ccn[nH]2)s1 | inactive: 0.334%
73 | CCN(CC)C(=S)SC(NC=O)C(Cl)(Cl)Cl (centres undefined) | inactive: 1.43%
74 | O=C(OC1CN2CCC1CC2)c1cccc2[nH]cnc12 (centres undefined) | inactive: 0.565%
75 | CC(C)NC(=O)NP(=O)(Oc1ccccc1)Oc1ccccc1 | inactive: -1.04%

Row | Compound | activation
76 | COc1cc(C(=O)NCC2(N3CCOCC3)CCCCC2)ccc1OCC(C)C | inactive: -0.246%
77 | O=[N+]([O-])c1ccc(-c2cc([N+](=O)[O-])c(O)c([N+](=O)[O-])c2)cc1 | inactive: -0.338%
78 | C[As](=O)(O)c1cccc(C(=O)O)c1 | inactive: -0.879%
79 | O=[As](O)(c1ccc(O)cc1)c1ccccc1O | inactive: 4.44%
80 | Cc1ccc(OP(=O)(Nc2ccc([N+](=O)[O-])cn2)Oc2ccc(C)cc2)cc1 | inactive: -0.169%
81 | [N-]=[N+]=NC1CCCCC1NC(=O)c1cc([N+](=O)[O-])cc([N+](=O)[O-])c1 (centres undefined) | inactive: 0.292%
82 | Cc1ccc2nc3c(c(C)c2c1)CC(C(Cl)Cl)S3 (centres undefined) | inactive: -2.86%
83 | O=[N+]([O-])c1cc(Oc2ccc([N+](=O)[O-])cc2C(F)(F)F)cc([N+](=O)[O-])c1 | inactive: -0.462%
84 | COc1ccc(N/C(=N/P(=O)(N2CCOCC2)N2CCOCC2)N2CCOCC2)cc1 | inactive: 2.03%
85 | Cc1c2c(nc3ccccc13)SC(C(Cl)Cl)C2 (centres undefined) | inactive: 0.21%
86 | Cc1cc(=O)[nH]c(N[N+](=O)[O-])n1 | inactive: -2.12%
87 | O=C(OC1CN2CCC1CC2)C12CC3CC(CC(C3)C1)C2 (centres undefined) | inactive: -1.75%
88 | O=P1(N(CCCl)CCCl)Nc2ccccc2N1 | inactive: -0.446%
89 | O=P1(N(CCCl)CCCl)OCCCN1CCCl (centres undefined) | inactive: -0.568%
90 | COc1cc(I)ccc1[As](=O)(O)O | inactive: -0.483%
91 | COc1ccc2nc(NP(=O)(c3ccccc3)c3ccccc3)sc2c1 | inactive: -1.23%
92 | O=C(NC(Sc1ccncn1)C(Cl)(Cl)Cl)c1ccccc1 (centres undefined) | inactive: -0.817%
93 | Oc1ccccc1CNc1ccccn1 | inactive: -1.58%
94 | CC(C)CC(=O)NC(Sc1ccc(Cl)cc1)C(Cl)(Cl)Cl (centres undefined) | inactive: -2.35%
95 | Nc1cc(N)c2nonc2c1[N+](=O)[O-] | inactive: -5.53%
96 | O=[N+]([O-])C1C(O)C(O)C([N+](=O)[O-])C(O)C1O (centres undefined) | inactive: -0.19%
97 | Cc1ccc(N/C(=N/P(=O)(N2CCOCC2)N2CCOCC2)N2CCOCC2)cc1 | inactive: 0.152%
98 | CN(C(=O)Cc1ccc(Cl)c(Cl)c1)[C@H]1CCCC[C@H]1N1CCCC1 | inactive: 0.0783%
99 | NC(=O)c1cc([N+](=O)[O-])cc([N+](=O)[O-])c1N | inactive: 0.96%
